Measured values: paper PMC10677270, “2554. What’s Weight Got to Do with It? Prospective Pharmacokinetic/Pharmacodynamic Evaluation of Fixed-Dose Daptomycin” (Open Forum Infectious Diseases, 2023)

Experiment: Steady-state pharmacokinetic/pharmacodynamic evaluation of fixed-dose (750 mg) daptomycin in patients with Staphylococcus aureus infections

For CCCCCCCCCC(=O)N[C@@H](Cc1c[nH]c2ccccc12)C(=O)N[C@H](CC(N)=O)C(=O)N[C@@H](CC(=O)O)C(=O)N[C@@H]1C(=O)NCC(=O)N[C@@H](CCCN)C(=O)N[C@@H](CC(=O)O)C(=O)N[C@H](C)C(=O)N[C@@H](CC(=O)O)C(=O)NCC(=O)N[C@H](CO)C(=O)N[C@@H]([C@H](C)CC(=O)O)C(=O)N[C@@H](CC(=O)c2ccccc2N)C(=O)O[C@@H]1C [DAP, daptomycin], which “Elevated Cmin (> 24.3 mg/L) occurred, share of patients” value (all patients, 7/22, DAP 750 mg every 24 h, safety target) is on record?
Its value is 32%.

What about the “Elevated Cmin (> 24.3 mg/L), share of patients” value (males n=10, DAP 750 mg every 24 h) of the same molecule?
Its value is 20%.
